## Ab-14 light chain CDR variants: yeast mating affinities

Target: peptide PDVDLGDISGINAS, taken from heptad repeat 2 (HR2) of SARS-CoV-2 spike.

Each scFv is VH, a (GGGGS)3 linker, VL, as in the parent Ab-14, and differs from it in the CDRs of the light chain only.
VH: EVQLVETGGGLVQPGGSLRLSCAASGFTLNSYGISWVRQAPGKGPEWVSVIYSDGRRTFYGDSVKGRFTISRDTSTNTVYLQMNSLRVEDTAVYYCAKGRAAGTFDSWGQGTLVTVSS
VL: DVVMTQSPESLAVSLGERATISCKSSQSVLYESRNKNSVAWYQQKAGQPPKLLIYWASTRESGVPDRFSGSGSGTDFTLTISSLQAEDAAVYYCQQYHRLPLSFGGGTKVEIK

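The parent was found by panning a naive human phage display library on the peptide. The variants were designed computationally from a first round of random CDR variants and then made and measured. Several design methods are mixed in this list. The scFvs were displayed on barcoded MATa yeast, the peptide on MATalpha yeast. The frequency of each diploid, read from paired DNA barcodes, reflects how well the two displayed proteins bind. Scores were corrected for input abundance and mapped to Kd with protein pairs of known affinity run in the same pool. Mating was done six times.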

The parent's light chain CDRs are KSSQSVLYESRNKNSVA, WASTRES, QQYHRLPLS; each variant's own CDRs replace them letter for letter. Variants here have at most six changes. The Kd shown is the geometric mean over detected replicates; a lower Kd is a better binder. An entry "no signal" has no value in the source: the pair was not observed among the diploids in any replicate. This suggests poor binding but is not conclusive. A sequence measured in both rounds can read differently, since the two assays cover different ranges. The parent sequence was in this pool as ten entries: three were never detected, three once, and four in most replicates, with averages from 2.2 nM to 240 nM. In the paper, a design with two or fewer of six values counts as a poor binder. Background: pairings of all light chain designs with three empty control strains gave a value in 4% of cases (median 430 nM, 5th percentile 38 nM). Values in that range, when seen in few replicates, are hard to tell from nonspecific mating. For each scFv, signals with the empty controls are counted beside the result.

With KLSQSVLYESGNKNSVA | NASTRMS | QQYHRLPLS the result was 2.2 nM (6 of 6 replicates; controls 1 of 18).
With KSSLSVLYESRNKNSVA | WASTRES | QQYNRLPLS the result was 880 nM (1 of 6 replicates; controls 1 of 18).
With KTSQPGLYESRNKNSVA | WASTRES | QQYCRLPLS the result was no signal (0 of 6 replicates; controls 0 of 18).
With KVSQSVLYESGMKNSVA | NASTRES | QQYHRLPLS the result was 15 nM (6 of 6 replicates; controls 0 of 18).
With KSSQSVLYYSRNKNSNA | WASTRPS | QQYHRLPLS the result was no signal (0 of 6 replicates; controls 1 of 18).
With KSSQSVSPESANKNSVA | WASTRES | QQYHRLPLS the result was 26 nM (5 of 6 replicates; controls 1 of 18).
With KLQQQDLYESRNKNSVA | SASTREE | QQYHRLPLS the result was 720 pM (6 of 6 replicates; controls 0 of 18).
With KNSVSVLYESRNKNSVA | WANTRES | QQYHRLPLS the result was no signal (0 of 6 replicates; controls 0 of 18).
With KSSQLVLYESRNKNSVA | QASTREP | QQYHRLPCS the result was no signal (0 of 6 replicates; controls 0 of 18).
With KTSQSVLYESRNSNSVA | WASTRES | QQYHRLPLS the result was 46 nM (5 of 6 replicates; controls 0 of 18).
With KSSPVVLYESGNKNSVA | NASTRMS | QQYHRLPLS the result was 2.3 nM (6 of 6 replicates; controls 0 of 18).
With KVSQSFLYESRNKNAVA | QASTRES | QQYHRLPLS the result was 470 pM (6 of 6 replicates; controls 1 of 18).
With KSQQSYEYESRNKNSVA | HASTRED | QQYHRLPLS the result was 780 pM (6 of 6 replicates; controls 0 of 18).
With KLYQSDLYESRNKNSVA | NASYRES | QQYHRLPLS the result was 1.3 nM (6 of 6 replicates; controls 1 of 18).
With KSSQSVLYESRMKNSVA | WASTRES | QQYHRLPLS the result was 260 nM (1 of 6 replicates; controls 1 of 18).
With KSSQSVLYESRNKNSVA | RASTRES | QQYHRLPLS the result was 29 nM (6 of 6 replicates; controls 0 of 18).
With KVSQSVDFESRNKNSVA | DASTRES | QQYHRLPLS the result was 1.2 nM (6 of 6 replicates; controls 2 of 18).
With KASQSVLYESRNKNSVA | GASTRES | QQYHRLPLI the result was 3.7 nM (6 of 6 replicates; controls 0 of 18).
With KSSYSVLYESRNKNSVA | SASVRES | QQKHRLPLS the result was 22 nM (6 of 6 replicates; controls 1 of 18).
With KDSQIVLYESRNKNSVA | WASTRES | QQYHRLPLF the result was no signal (0 of 6 replicates; controls 0 of 18).
With KSSQSVLYESRNKQSVA | WASTRVS | QQYHREPLS the result was no signal (0 of 6 replicates; controls 0 of 18).
With KLEQSVLYESRNKNSVA | EASTRES | QQYHRLPLS the result was 1.3 nM (6 of 6 replicates; controls 0 of 18).
With KSSQSVQYDTRNKNSVA | QASTRES | QQYHRLPLS the result was 2.9 nM (6 of 6 replicates; controls 1 of 18).
With KSYQSFLYESRNKNSVA | EASTRES | QQYHRLPLS the result was 1.8 nM (6 of 6 replicates; controls 2 of 18).
With KSSIVVLYESHNKNSVA | DASTRMS | QQYHRLPLS the result was 2.7 nM (6 of 6 replicates; controls 0 of 18).
With HLSDSELYESRNKNSVA | NASTRES | QQYHRLPLN the result was 3.7 nM (6 of 6 replicates; controls 0 of 18).
With KSLSSVLYESNNKNSVA | HASTRED | QQYHRLPLS the result was 1.4 nM (6 of 6 replicates; controls 1 of 18).
With KLSQSVLYEERNKNSVA | NASTREQ | QQYHRLPLS the result was 5.7 nM (6 of 6 replicates; controls 1 of 18).
With KSSQSVLYESRNHNSVA | MASTRES | QQYHRLPLS the result was 90 nM (6 of 6 replicates; controls 0 of 18).
With KSDQSVLYESGNKNSVA | WATTRES | QQYHRLPLS the result was 6.1 nM (6 of 6 replicates; controls 1 of 18).
With KQSQSVLYESRPKNSVA | WASTRGS | QQYHRDPLS the result was no signal (0 of 6 replicates; controls 0 of 18).
With KSSQSVLYESRNKNSVA | WASIRES | QQYHRLPLS the result was 180 nM (1 of 6 replicates; controls 0 of 18).
With KVSQSVLYESRNKNSVA | HASTRES | QQYHRLPLS the result was 1.3 nM (6 of 6 replicates; controls 4 of 18).
With HSSQSWLYESRNKNSVA | GGNTRES | QQYHRLPLS the result was 1.1 nM (6 of 6 replicates; controls 2 of 18).
With KSSQSVLYYSRNKNSVA | DASTRES | QQYHRLPLS the result was 2.1 nM (6 of 6 replicates; controls 2 of 18).
With KSSQSVWYESRNQNSQA | AASYRES | QQYHRLPLN the result was no signal (0 of 6 replicates; controls 0 of 18).
With KLPQSQLYESRNKNSVA | NASTRES | QQYHRLPLS the result was 500 pM (6 of 6 replicates; controls 2 of 18).
With KSSQSALYESVNKNSVA | WASTRES | QQYHRLPLS the result was 43 nM (6 of 6 replicates; controls 0 of 18).
With KSSQSGLHEHTNKNSVA | WASTRES | QQYHRLPLS the result was 8.2 nM (5 of 6 replicates; controls 0 of 18).
With KSSQSVLYESRNKNSVA | WAGLREV | QQYMRLPLS the result was 57 nM (1 of 6 replicates; controls 0 of 18).
With KSSISYLYESRNKNSVA | EASTRES | QYYHRLPLS the result was 55 nM (6 of 6 replicates; controls 0 of 18).
With KVSQSQLYESRNKWSVA | NASTRES | QQYHRLPLS the result was 3.0 nM (6 of 6 replicates; controls 1 of 18).
With KSSQSSTYESRNKNSVA | WSSTRES | QQYMRLPLS the result was 140 nM (4 of 6 replicates; controls 0 of 18).
With KSSQSVLYESRNKNSVA | WASTRES | QQYHRLPLK the result was no signal (0 of 6 replicates; controls 0 of 18).

For reference, 2 entries of the list once more:

| CDR-L1 | CDR-L2 | CDR-L3 | apparent Kd | replicates with signal | signal with controls |
|---|---|---|---|---|---|
| KSSQSVLYESRNKNSVA | RASTRES | QQYHRLPLS | 29 nM | 6/6 | 0/18 |
| KSSQLVLYESRNKNSVA | QASTREP | QQYHRLPCS | no signal | 0/6 | 0/18 |

Values reported by Li et al. 2023, doi:10.1038/s41467-023-39022-2 (FLAb copy).